Source: patent US5639873A, “Oligothionucleotides” (Centre National de la Recherche Scientifique (CNRS), priority 1992, dated 1997)

Tested on: 3'-exonuclease snake venom phosphodiesterase
Type: in vitro ADME
From the text: Study of the substrate-type activities of hexamers 4'-SrU6, 4'-SrU6 -3'n-prOH compared with the substrate characteristics of the hexamers βrU6 and αrU6 in relation to various purified nucleases.
Snake venom phosphodiesterase (VSP) is a 3'-exonuclease-3' which liberates nucleotides 5'-phosphate after degrading the oligomer by its 3' end.
These four enzymes were obtained from Boehringer Mannheim.
Generally, one optical density unit at 260 nm of each hexamer is brought into contact with a certain concentration of the enzyme considered and is then diluted in a sufficient quantity for 1000 μl of enzymatic digestion buffer.
Various digestion buffers were used depending on the nature of the enzyme (Table 9).
The stock sample is divided into 10 fractions of 100 μl before being frozen at -18° C.
One aliquot fraction of 100 μl is collected and incubated in a dry oven thermostated at 37° C. for a time t and is then analyzed by analytical HPLC.
The study of the surface area of the signal corresponding to the hexamer makes it possible to measure a kinetics of degradation whose half-life period is calculated (Table 10).

Substance: 4'-Sr-(U-U-U-U-U-U-3'-P-CH2 -CH2 -OH) [βSrU6 3'(CH2)3 OH]
- Half-life period (Table 10, VSP 6 × 10^-4 units/ml, pH 9.4, 37° C.): 4.17 h
- resistance to the 3'-exonuclease (in words) (propanol phosphodiester bond at the 3' end): greatly increased
